From patent publication US20210169980A1 (HONG KONG UNIVERSITY OF SCIENCE AND TECHNOLOGY, published 2021) come the findings set out here.

Holding throughout (experiment): ITC
(ITC needs no label: the signal is the heat of the interaction.)

One test has as its target LC3A (human, UniProt Q9H492 1-121).
A further test concerns the target [..]1 (human, UniProt Q9H0R8 1-117).
For another test, the target named is T1, LGG-2 (C. elegans, UniProt Q23536 1-130, limits assumed).
T1 construct: also called worm orthologue of LC3
T1 sequence (looked up): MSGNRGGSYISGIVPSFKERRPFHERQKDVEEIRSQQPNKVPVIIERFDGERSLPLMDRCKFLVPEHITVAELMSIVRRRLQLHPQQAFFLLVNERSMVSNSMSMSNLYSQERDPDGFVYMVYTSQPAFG

B1: AnkB LIR (AnkB WT peptide, human 440 kD AnkB residues 1588-1614) (peptide)
peptide: VEEEWVIVSDEEIEEARQKAPLEITEY
B1 registered a Kd with LC3A of 3.7 nM.

B2: AnkG LIR (AnkG WT peptide, rat 480 kD AnkG residues 1985-2010) (peptide)
peptide: PEDDWTEFSSEEIREARQAAASHAPS
Take B2: in test [..]1, the Kd was about 3.7 nM. Further, the “fold weaker affinity against LGG-1” value in the test with LGG-2 is about 130 fold.

In general, Kd refers to the free concentration of one partner at which half of the binding sites on the other are occupied at equilibrium, for simple one-to-one binding. The low end stands for higher affinity, the high end for lower affinity.
